According to ChEMBL document CHEMBL1777702, “N⁴-[Alkyl-(hydroxyphosphono)phosphonate]-cytidine-new drugs covalently linking antimetabolites (5-FdU, araU or AZT) with bone-targeting bisphosphonates (alendronate or pamidronate)” (Bioorg Med Chem, 2011):

System: RAW264.7
Assay: Selectivity ratio of IC50 for mouse RAW264.7 cells to IC50 for mouse LLC cells

## NCCCC(O)(P(=O)([O-])O)P(=O)(O)O.O.O.O.[Na+]
  Ratio IC50: 11
